Columns and labels:
Peptide deformylase = target: T1, Peptide deformylase (Escherichia coli, UniProt Q9JN24); experiment: Inhibition of Escherichia coli peptide deformylase after 1 hr by fluorescence polarization based competition assay
T1 sequence (Q9JN24 whole entry): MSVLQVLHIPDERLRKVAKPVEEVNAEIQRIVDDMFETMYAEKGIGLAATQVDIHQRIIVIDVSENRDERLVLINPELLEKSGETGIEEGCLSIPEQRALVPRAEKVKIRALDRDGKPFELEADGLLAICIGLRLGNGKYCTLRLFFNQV

[1] = Cytotoxicity against human ALL3 cells; format: functional, cell-based
[2] = Cytotoxicity against human CWR22 cells; format: functional, cell-based

## COc1ccc(C(=O)c2coc3c2C(=O)C(=O)C(Cl)=C3Cl)cc1OC
Peptide deformylase
  IC50: 67 µM
[1]
  IC50: 69 µM
[2]
  IC50: 68 µM

— ChEMBL document CHEMBL1806384, “Identification of benzofuran-4,5-diones as novel and selective non-hydroxamic acid, non-peptidomimetic based inhibitors of human peptide deformylase” (Bioorg Med Chem Lett, 2011)
